Reference: US8959984B2, “Proteome-wide quantification of small molecule binding to cellular target proteins” (priority 2007, dated 2015)

Amino acid sequences for entries named in this document (tags omitted). A change or cut given only in a name is not applied to a line headed by its entry.
UniProt Q8N5S9: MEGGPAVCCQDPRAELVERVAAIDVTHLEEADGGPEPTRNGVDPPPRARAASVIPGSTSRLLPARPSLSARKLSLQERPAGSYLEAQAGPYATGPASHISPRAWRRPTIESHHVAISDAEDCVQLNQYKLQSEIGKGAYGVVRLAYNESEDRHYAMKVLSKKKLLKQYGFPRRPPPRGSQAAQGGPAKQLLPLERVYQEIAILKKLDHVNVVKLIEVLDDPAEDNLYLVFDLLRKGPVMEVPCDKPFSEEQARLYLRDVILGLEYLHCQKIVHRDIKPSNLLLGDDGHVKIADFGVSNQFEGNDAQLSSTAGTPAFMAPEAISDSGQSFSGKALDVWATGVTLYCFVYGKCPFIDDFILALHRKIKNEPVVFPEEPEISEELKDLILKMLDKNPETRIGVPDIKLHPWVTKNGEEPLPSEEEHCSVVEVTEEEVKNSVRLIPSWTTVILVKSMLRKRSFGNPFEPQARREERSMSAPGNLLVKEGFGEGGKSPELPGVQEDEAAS
UniProt Q9P1W9: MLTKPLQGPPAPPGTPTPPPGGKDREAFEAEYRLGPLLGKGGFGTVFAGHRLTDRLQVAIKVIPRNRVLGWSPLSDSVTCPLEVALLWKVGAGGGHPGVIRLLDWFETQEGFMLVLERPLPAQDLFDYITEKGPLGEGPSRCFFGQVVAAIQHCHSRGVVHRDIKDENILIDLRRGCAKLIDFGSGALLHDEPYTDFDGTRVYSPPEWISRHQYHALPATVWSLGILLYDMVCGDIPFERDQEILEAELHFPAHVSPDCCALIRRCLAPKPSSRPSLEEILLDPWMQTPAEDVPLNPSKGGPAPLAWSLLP

Tests used:
Assay in all cases: Ki determination for immobilized VI16742: two consecutive incubations, control beads, ligand concentration and incubation time controls (Tables 7, 8)
Format in all cases: binding
[1] = target: T1, cellular target proteins in HeLa cell lysate (Homo sapiens, UniProt O14965); details: Ki (VI16742), AurA (AURKA) IPI00298940
T1 sequence (O14965 1-403): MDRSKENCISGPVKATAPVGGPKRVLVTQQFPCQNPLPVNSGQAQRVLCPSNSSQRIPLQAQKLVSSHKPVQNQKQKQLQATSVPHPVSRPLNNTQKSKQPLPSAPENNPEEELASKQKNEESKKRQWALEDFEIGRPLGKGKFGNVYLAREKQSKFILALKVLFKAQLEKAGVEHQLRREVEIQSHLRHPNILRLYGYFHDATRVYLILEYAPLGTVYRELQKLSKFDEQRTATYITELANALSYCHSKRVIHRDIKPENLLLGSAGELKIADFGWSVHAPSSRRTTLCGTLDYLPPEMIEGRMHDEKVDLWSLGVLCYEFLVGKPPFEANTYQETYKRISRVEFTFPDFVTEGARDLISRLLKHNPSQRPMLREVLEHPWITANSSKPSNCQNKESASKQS

[2] = target: T2, cellular target proteins in HeLa cell lysate (Homo sapiens, UniProt O43741); details: Ki (VI16742), PRKAB2 IPI00013905
T2 sequence (O43741 1-272): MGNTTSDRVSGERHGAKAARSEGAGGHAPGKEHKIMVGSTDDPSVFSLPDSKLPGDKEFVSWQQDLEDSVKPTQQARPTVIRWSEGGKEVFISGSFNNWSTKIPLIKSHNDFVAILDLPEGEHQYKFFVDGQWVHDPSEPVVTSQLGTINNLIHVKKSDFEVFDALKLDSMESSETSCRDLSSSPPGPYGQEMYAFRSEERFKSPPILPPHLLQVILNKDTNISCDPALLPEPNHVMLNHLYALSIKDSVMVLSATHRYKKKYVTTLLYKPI

[3] = target: cellular target proteins in HeLa cell lysate (Homo sapiens, UniProt O60885); details: Ki (VI16742), BRD4 IPI00440727
[4] = target: T3, cellular target proteins in HeLa cell lysate (Homo sapiens, UniProt Q709F0); details: Ki (VI16742), ACAD11 IPI00420065
T3 sequence (Q709F0 1-780): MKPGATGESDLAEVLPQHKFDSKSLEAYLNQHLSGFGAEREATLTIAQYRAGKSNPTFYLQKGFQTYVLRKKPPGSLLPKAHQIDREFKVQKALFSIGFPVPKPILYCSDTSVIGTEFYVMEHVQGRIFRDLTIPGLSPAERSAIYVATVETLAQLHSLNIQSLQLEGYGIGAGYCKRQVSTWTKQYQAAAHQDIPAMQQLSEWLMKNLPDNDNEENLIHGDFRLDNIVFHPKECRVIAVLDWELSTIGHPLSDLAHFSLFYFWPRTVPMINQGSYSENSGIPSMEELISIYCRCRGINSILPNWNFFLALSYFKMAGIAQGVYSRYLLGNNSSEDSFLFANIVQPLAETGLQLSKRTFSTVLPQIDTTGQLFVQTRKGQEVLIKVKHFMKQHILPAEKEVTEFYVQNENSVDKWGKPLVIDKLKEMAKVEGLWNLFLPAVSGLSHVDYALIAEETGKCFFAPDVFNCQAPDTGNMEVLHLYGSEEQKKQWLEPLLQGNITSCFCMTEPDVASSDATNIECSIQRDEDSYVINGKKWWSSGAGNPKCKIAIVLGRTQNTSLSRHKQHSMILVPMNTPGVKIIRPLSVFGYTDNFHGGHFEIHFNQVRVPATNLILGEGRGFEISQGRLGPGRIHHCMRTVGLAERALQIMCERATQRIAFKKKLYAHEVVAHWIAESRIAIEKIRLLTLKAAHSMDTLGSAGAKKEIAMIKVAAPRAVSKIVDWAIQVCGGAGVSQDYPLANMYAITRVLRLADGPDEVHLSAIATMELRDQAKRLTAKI

[5] = target: cellular target proteins in HeLa cell lysate (Homo sapiens, UniProt Q8N5S9); details: Ki (VI16742), CaMKK1 (CAMKK1) IPI00657696
[6] = target: cellular target proteins in HeLa cell lysate (Homo sapiens, UniProt Q9P1W9); details: Ki (VI16742), PIM2 IPI00332692

Molecule CC(C)n1c(=O)ccc2cnc(Nc3ccc(OCCN)cc3)nc21 [V16742] has a Ki [1] of 3.23 µM, a Ki [2] of 18.1 µM and a Ki [3] of 44.5 µM. It also gave a Ki [4] of 3.5 µM, a Ki [5] of 41.2 µM and a Ki [6] of 49.4 µM.
